Source: patent US11207296B2, “XPA inhibitor compounds and their use” (INDIANA UNIVERSITY RESEARCH AND TECHNOLOGY CORPORATION, priority 2017, dated 2021)
Several values for one entry are separate records, joined by “and”; a condition that tells them apart may be missing. Identical values can stand only once.

Amino acid sequences for entries named in this document (tags omitted).
UniProt P23025, whole entry: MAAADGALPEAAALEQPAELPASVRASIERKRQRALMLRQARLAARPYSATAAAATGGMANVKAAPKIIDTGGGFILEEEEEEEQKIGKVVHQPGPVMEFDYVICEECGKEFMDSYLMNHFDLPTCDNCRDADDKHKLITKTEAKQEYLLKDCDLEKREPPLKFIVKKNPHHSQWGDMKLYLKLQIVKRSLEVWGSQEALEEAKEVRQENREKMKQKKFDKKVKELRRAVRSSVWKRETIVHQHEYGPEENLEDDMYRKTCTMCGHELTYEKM

Target: full length XPA protein (Homo sapiens, UniProt P23025)
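Note: XPA expressed in Sf9 cells, preincubated with compound on ice before adding DNA, complex resolved on native polyacrylamide gel at 4 °C, PhosphorImager band intensity, binding inhibition versus DMSO.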

Structure (SMILES) | IC50
CC1=NN(c2cccc(C(=O)O)c2)C(=O)/C1=C\c1ccc(-c2ccc(Cl)c(C(=O)NCC3CC3)c2)s1 | 20 µM and 15 µM
CC1=NN(c2cccc(C(=O)O)c2)C(=O)C1Cc1ccc(-c2ccc(Cl)c(C(=O)NCc3ccc(F)cc3)c2)s1 (centres unmarked) | 20 µM
